Values quoted from earlier work in publication PMC6165679.

Amino acid sequences for entries named in this document (tags omitted). A change or cut given only in a name is not applied to a line headed by its entry. Residues count along the entry.
UniProt P35414: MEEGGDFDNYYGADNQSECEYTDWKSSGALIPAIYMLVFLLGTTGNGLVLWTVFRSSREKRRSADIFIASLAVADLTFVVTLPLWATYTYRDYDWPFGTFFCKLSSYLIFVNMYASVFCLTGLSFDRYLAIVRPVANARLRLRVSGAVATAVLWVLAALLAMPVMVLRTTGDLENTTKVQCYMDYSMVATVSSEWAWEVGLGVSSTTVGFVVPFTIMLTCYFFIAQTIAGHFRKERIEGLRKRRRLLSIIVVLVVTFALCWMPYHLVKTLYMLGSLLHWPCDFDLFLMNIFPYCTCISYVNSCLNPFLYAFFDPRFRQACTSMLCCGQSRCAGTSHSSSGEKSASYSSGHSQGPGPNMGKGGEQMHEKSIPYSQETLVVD
UniProt Q9ULZ1, 39-77: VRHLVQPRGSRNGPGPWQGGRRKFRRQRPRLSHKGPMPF

Target: APJ receptor (Homo sapiens) (UniProt P35414)

- Ki: 0.05 nM
Substance: apelin-36 apelin-36 (from UniProt Q9ULZ1)
